Source: patent publication US8426463B2, “[((1R,2S,5R)-2-isopropyl-5-methyl-cyclohexanecarbonyl)-amino]-acetic acid isopropyl ester and related compounds and their use in therapy” (priority 2011, dated 2013)

Tested on: Salmonella typhimurium tester strain TA1535
Test: Ames test in TA1535 with and without S9-mix (Notox)
Settings: absence and presence of S9-metabolic activation

## CC(C)OC(=O)CNC(=O)[C@@H]1C[C@H](C)CC[C@H]1C(C)C [Gly-O-iPr, [((1R,2S,5R)-2-isopropyl-5-methyl-cyclohexanecarbonyl)-amino]-acetic acid isopropyl ester]
  increase in the number of revertant (His+) colonies: did not induce a significant dose-related increase
